Experimental data as given in PMC11273436 (Antibiotics, 2024).

Test system: Ifnb, Isg15, Mx1 expression in Raw264.7 cells
Details: mouse Raw264.7 cells, 6 h or 12 h, qPCR relative to Hprt

VCVKKVRKLYKKIYKCR-NH2 (disulfide) [Pc-5]
expression of type I interferon and its downstream genes: substantially upregulated
